{
  "source": "paper PMC3946342",
  "about": "“Evaluating Molecular Mechanism of Hypotensive Peptides Interactions with Renin and Angiotensin Converting Enzyme” (PLoS ONE, 2014)",
  "origin": "cited, not measured here",
  "tested_on": "ACE",
  "design": "method as in earlier work",
  "details": "previously determined ref 8; read-out: IC50 for ACE inhibition; cited from earlier work",
  "data": [
    {"smiles": "CC(C)C[C@H](N)C(=O)N[C@@H](Cc1ccc(O)cc1)C(=O)O", "note": "[LY, Leu-Tyr]", "values": [
      {"measurement": "IC50", "result": 107, "unit": "µM"}
    ]}
  ]
}
